Measurements: US6552192B1, “Substituted nitrogen heterocyclic derivatives and pharmaceutical use thereof” (Ustau Experimentalni Botaniky AV-CR, priority 1999, dated 2003)

Columns and labels:
[1] = system: normal human lymphocytes, mitogen activated proliferation; experiment: Mitogen (concanavalin A) activated proliferation of lymphocytes, 3H-thymidine incorporation; type: cell-based; settings: 72 hours
[2] = system: T-lymphoblastic leukemia cell line CEM; experiment: In vitro cytotoxicity, MTT assay, CEM; type: cell-based, Human; settings: 72 hours
DNA synthesis = DNA synthesis ([α-32P]dATP incorporation) in Xenopus egg extracts; type: biochemical; settings: [α-32P]dATP incorporation after 3 h; read-out: Inhibition of DNA synthesis IC50
B16 melanoma = experiment: In vitro cytotoxicity, MTT assay, B16; type: cell-based, mouse
[3] = system: normal human lymphocytes, spontaneous proliferation; experiment: Spontaneous proliferation of lymphocytes, 3H-thymidine incorporation; type: cell-based; settings: 72 hours, unstimulated lymphocytes
IκB-α = IκB-α kinase inhibition, in vitro kinase assay; type: biochemical

IC50 (DNA synthesis) [µM] | IC50 (IκB-α) [nM] | IC50 (IκB-α; unit nM printed beside the value) [nM] | Molecule | IC50 [1] [µM] | IC50 [2] [µM] | IC50 (B16 melanoma; 72 hours) [µM] | IC50 [3] [µM] | IC50 (B16 melanoma; Mus musculus, B16, 72 hours) [µM]
15 | 15400 |  | OLOMOUCINE [reference compound] | 72.1 | 70 | 85.4 | 245 | 
 |  | 11.2 | PURVALANOL A [reference compound] | 5.7 | 2.4 | 3.5 | 158 | 
2.4 |  |  | CC[C@H](CO)Nc1nc(NCc2ccccc2)c2nc(F)n(C(C)C)c2n1 |  |  |  |  | 
 |  |  | CC(C)[C@H](CO)Nc1nc(Nc2cccc(Cl)c2)c2nc(F)n(C(C)C)c2n1 |  |  |  |  | 3.5

Like-named read-outs stand apart in the source and are kept apart here.
